Numbering of substitutions follows the chain as printed. Names may count otherwise.
B1: CLIP-170 N-terminal fragment H2 (H2 1-481), P30622 K277A (protein)
chain: MSMLKPSGLKAPTKILKPGSTALKTPTAVVAPVEKTISSEKASSTPSSETQEEFVDDFRVGERVWVNGNKPGFIQFLGETQFAPGQWAGIVLDEPIGKNDGSVAGVRYFQCEPLKGIFTRPSKLTRKVQAEDEANGLQTTPASRATSPLCTSTASMVSSSPSTPSNIPQKPSQPAAKEPSATPPISNLTKTASESISNLSEAGSIKKGERELKIGDRVLVGGTKAGVVRFLGETDFAKGEWCGVELDEPLGKNDGAVAGTRYFQCQPKYGLFAPVHAVTKIGFPSTTPAKAKANAVRRVMATTSASLKRSPSASSLSSMSSVASSVSSRPSRTGLLTETSSRYARKISGTTALQEALKEKQQHIEQLLAERDLERAEVAKATSHVGEIEQELALARDGHDQHVLELEAKMDQLRTMVEAADREKVELLNQLEEEKRKVEDLQFRVEEESITKGDLEQKSQISEDPENTQTKLEHARIKELE
B2: CLIP-170 N-terminal fragment H2 (H2 1-481), P30622 H276A (protein)
chain: B1 chain with H276A, A277K
B3: CLIP-170 N-terminal fragment H2 (H2 1-481), P30622 K252A (protein)
chain: B1 chain with K252A, A277K
B4: CLIP-170 N-terminal fragment H2 (H2 1-481), P30622 K98E (protein)
chain: B1 chain with K98E, A277K
B5: CLIP-170 N-terminal fragment H2 (H2 1-481), P30622 K252E; N253D (protein)
chain: B1 chain with K252E, N253D, A277K
B6: CLIP-170 N-terminal fragment H2 (H2 1-481), P30622 N253A (protein)
chain: B1 chain with N253A, A277K
B7: CLIP-170 N-terminal fragment H2 (H2 1-481), P30622 K98E; N99D (protein)
chain: B1 chain with K98E, N99D, A277K
B8: CLIP-170 N-terminal fragment H2 (H2 1-481), P30622 K224A (protein)
chain: B1 chain with K224A, A277K
B9: CLIP-170 N-terminal fragment H2 (H2 1-481), P30622 K123A (protein)
chain: B1 chain with K123A, A277K
B10: CLIP-170 N-terminal fragment H2 (H2 1-481), P30622 K238A (protein)
chain: B1 chain with K238A, A277K

biological target: filamentous actin (F-actin) polymerized from rabbit muscle G-actin, P68135; assay: F-actin-binding assay (cosedimentation); conditions: chain shown with the change; 2.3 μM H2 mutant, 10.5 μM F-actin; parent: est. 1.0; read off a plot

Binder | ratio to parent
B1 | 0.95
B2 | 1.2
B3 | 0.89
B4 | 0.64
B5 | 0.91
B6 | 0.62
B7 | 1
B8 | 0.63
B9 | 0.79
B10 | 0.65

— publication PMC9062740
